Data on 25 molecules can be found in patent publication US20070059799A1 (priority 1999, published 2007).

In one assay the test system is A3-supertype alleles. Kind of assay: A3-supertype cross-reactive binding (A*03, A*11, A*3101, A*3301, A*6801). Conditions: A3-supermotif cross-reactive peptides. On the set-up: species or system human.
The molecule `CC(C)C[C@H](NC(=O)[C@@H](NC(=O)[C@@H](N)Cc1ccccc1)C(C)C)C(=O)NCC(=O)NCC(=O)N[C@@H](CS)C(=O)N[C@@H](CCCNC(=N)N)C(=O)N[C@@H](Cc1c[nH]cn1)C(=O)N[C@@H](CCCCN)C(=O)O` [peptide 1.0219] yielded an XRN of 3.

Still in this assay, the particulars now being: number of A3-supertype alleles bound; 3 or more = degenerate.
Take `CC(C)C[C@H](NC(=O)[C@@H](N)[C@@H](C)O)C(=O)N1CCC[C@H]1C(=O)N[C@@H](CCC(=O)O)C(=O)N[C@H](C(=O)N[C@H](C(=O)N[C@H](C(=O)N[C@H](C(=O)N[C@@H](CCCNC(=N)N)C(=O)N[C@@H](CCCNC(=N)N)C(=O)O)C(C)C)C(C)C)[C@@H](C)O)[C@@H](C)O` [Peptide 1069.22]: the Alleles bound amounted to 2.
As for `CC[C@H](C)[C@H](NC(=O)[C@H](Cc1c[nH]c2ccccc12)NC(=O)[C@@H](NC(=O)CNC(=O)[C@H](Cc1ccccc1)NC(=O)[C@H](CO)NC(=O)[C@@H](NC(=O)[C@@H](N)CC(C)C)C(C)C)C(C)C)C(=O)N[C@@H](CCCNC(=N)N)C(=O)O` [Peptide 1090.08], the Alleles bound came to 1.
On to `CC(C)C[C@H](NC(=O)[C@@H](NC(=O)[C@@H](N)Cc1ccccc1)C(C)C)C(=O)NCC(=O)NCC(=O)N[C@@H](CS)C(=O)N[C@@H](CCCNC(=N)N)C(=O)N[C@@H](Cc1c[nH]cn1)C(=O)N[C@@H](CCCCN)C(=O)O` [peptide 1.0219], for which the Alleles bound is 3.

A further assay deals with B7-supertype alleles. Kind of assay: B7-supertype cross-reactive binding (B*0702, B*3501, B*51, B*5301, B*5401). Conditions: B*0702, B*3501, B*51, B*5301, B*5401. The arrangement: species or system human.
Turning to “HBV env 313: B7-like HBV peptide, parent of I9 and F1 analogs (IPIPSSWAF)”, the “number of the 5 B7-supertype alleles bound” value is recorded as 4.

Still in this assay, the particulars now being: number of B7-supertype alleles bound; 3 or more = degenerate.
In turn, `CC[C@H](C)[C@H](N)C(=O)N1CCC[C@H]1C(=O)N[C@@H](CCC(N)=O)C(=O)N[C@@H](CO)C(=O)N[C@@H](CC(C)C)C(=O)N[C@@H](CC(=O)O)C(=O)N[C@@H](CO)C(=O)N[C@@H](Cc1c[nH]c2ccccc12)C(=O)N[C@@H](Cc1c[nH]c2ccccc12)C(=O)O` [Peptide 15.0030] gave an Alleles bound of 1.
On the same count and under the same terms, to `CC[C@H](C)[C@H](NC(=O)[C@@H]1CCCN1C(=O)[C@@H](N)CC(C)C)C(=O)N[C@@H](Cc1ccccc1)C(=O)N[C@@H](Cc1ccccc1)C(=O)N[C@@H](CS)C(=O)N[C@@H](CC(C)C)C(=O)N[C@@H](Cc1c[nH]c2ccccc12)C(=O)N[C@H](C(=O)O)C(C)C` [Peptide 15.0034] belongs 2.
With `CC(C)C[C@H](NC(=O)[C@H](CCC(N)=O)NC(=O)[C@H](Cc1c[nH]cn1)NC(=O)[C@H](CC(=O)O)NC(=O)[C@@H]1CCCN1C(=O)[C@@H](N)Cc1ccccc1)C(=O)N[C@@H](CC(=O)O)C(=O)N1CCC[C@H]1C(=O)N[C@@H](C)C(=O)O` [Peptide 16.0006], the Alleles bound was 1.
Same read-out and setting: the result for `CC[C@H](C)[C@H](NC(=O)[C@@H]1CCCN1C(=O)[C@@H](N)CC(C)C)C(=O)N[C@@H](Cc1c[nH]cn1)C(=O)N[C@H](C(=O)N[C@@H](C)C(=O)N[C@@H](CCC(=O)O)C(=O)N[C@@H](CC(C)C)C(=O)N[C@@H](CC(C)C)C(=O)N[C@@H](C)C(=O)O)[C@@H](C)O` [Peptide 16.0181] reads 1; that for `CC[C@H](C)[C@H](N)C(=O)N1CCC[C@H]1C(=O)N[C@H](C(=O)N1CCC[C@H]1C(=O)N[C@@H](CO)C(=O)N[C@@H](CO)C(=O)N[C@@H](Cc1c[nH]c2ccccc12)C(=O)N[C@@H](C)C(=O)O)[C@@H](C)CC` [Peptide 19.0005], 1.
Molecule `CC[C@H](C)[C@H](NC(=O)[C@@H]1CCCN1C(=O)[C@@H](N)CC(C)C)C(=O)N[C@@H](Cc1ccccc1)C(=O)N[C@@H](Cc1ccccc1)C(=O)N[C@@H](CS)C(=O)N[C@@H](CC(C)C)C(=O)N[C@@H](Cc1c[nH]c2ccccc12)C(=O)O` [Peptide 19.0007] showed an Alleles bound of 2.
Molecule `CSCC[C@H](N)C(=O)N1CCC[C@H]1C(=O)N[C@@H](CC(C)C)C(=O)N[C@@H](CO)C(=O)N[C@@H](Cc1ccc(O)cc1)C(=O)N[C@@H](CCC(N)=O)C(=O)N[C@@H](Cc1c[nH]cn1)C(=O)N[C@@H](Cc1ccccc1)C(=O)O` [Peptide 19.0010] yielded an Alleles bound of 2.
Still for that read-out and setting: the result for `CSCC[C@H](NC(=O)[C@H](C)NC(=O)[C@H](C)NC(=O)[C@@H]1CCCN1C(=O)[C@@H](N)Cc1c[nH]cn1)C(=O)N1CCC[C@H]1C(=O)N[C@@H](Cc1c[nH]cn1)C(=O)N[C@@H](CC(C)C)C(=O)O` [Peptide 19.0011] reads 2; that for `CC(C)C[C@H](NC(=O)[C@H](CC(C)C)NC(=O)[C@H](Cc1ccccc1)NC(=O)[C@@H]1CCCN1C(=O)[C@@H](N)CO)C(=O)N[C@@H](C)C(=O)N[C@@H](CCC(N)=O)C(=O)N[C@@H](Cc1ccccc1)C(=O)O` [Peptide 19.0012], 2; that for `CSCC[C@H](NC(=O)[C@H](CC(C)C)NC(=O)[C@H](C)NC(=O)[C@@H]1CCCN1C(=O)[C@@H](N)Cc1ccc(O)cc1)C(=O)N1CCC[C@H]1C(=O)N[C@@H](CC(C)C)C(=O)N[C@@H](Cc1ccc(O)cc1)C(=O)O` [Peptide 19.0014], 3.
Regarding `CSCC[C@H](NC(=O)[C@H](C)NC(=O)[C@H](C)NC(=O)[C@@H]1CCCN1C(=O)[C@@H](N)Cc1c[nH]cn1)C(=O)N1CCC[C@H]1C(=O)N[C@@H](Cc1c[nH]cn1)C(=O)N[C@@H](CC(C)C)C(=O)N[C@@H](CC(C)C)C(=O)N[C@H](C(=O)O)C(C)C` [Peptide 20.0273], the Alleles bound is recorded as 1.
`CC[C@H](C)[C@H](NC(=O)[C@@H]1CCCN1C(=O)[C@@H](N)CC(C)C)C(=O)N[C@@H](Cc1c[nH]cn1)C(=O)N[C@H](C(=O)N[C@@H](C)C(=O)N[C@@H](CCC(=O)O)C(=O)N[C@@H](CC(C)C)C(=O)N[C@@H](CC(C)C)C(=O)N[C@@H](C)C(=O)N[C@@H](C)C(=O)O)[C@@H](C)O` [Peptide 26.0359] registered an Alleles bound of 1.
For `CC(C)C[C@H](NC(=O)[C@H](CC(C)C)NC(=O)[C@H](Cc1ccccc1)NC(=O)[C@@H]1CCCN1C(=O)[C@@H](N)CO)C(=O)N[C@@H](C)C(=O)N[C@@H](CCC(N)=O)C(=O)N[C@@H](Cc1ccccc1)C(=O)N[C@H](C(=O)N[C@@H](CO)C(=O)N[C@@H](C)C(=O)O)[C@@H](C)O` [Peptide 26.0566], the Alleles bound is 2.
On to `CC[C@H](C)[C@H](NC(=O)[C@H](CS)NC(=O)[C@H](C)NC(=O)[C@H](Cc1ccc(O)cc1)NC(=O)[C@H](CC(C)C)NC(=O)[C@@H]1CCCN1C(=O)[C@H](CCSC)NC(=O)[C@H](CC(C)C)NC(=O)[C@H](C)NC(=O)[C@@H]1CCCN1C(=O)[C@@H](N)Cc1ccc(O)cc1)C(=O)O` [peptide 26.0570], for which the Alleles bound is given as 3.

For the next assay, the system named is common HLA-DR alleles. Kind of assay: HLA-DR cross-reactive binding, sequential screening panels of DR assays. Conditions: primary through tertiary DR panels. The arrangement: species or system human.
Turning to `CC[C@H](C)[C@H](NC(=O)[C@H](Cc1c[nH]c2ccccc12)NC(=O)[C@@H](NC(=O)CN)C(C)C)C(=O)N[C@@H](CCCNC(=N)N)C(=O)N[C@H](C(=O)N1CCC[C@H]1C(=O)N1CCC[C@H]1C(=O)N[C@@H](C)C(=O)N[C@@H](Cc1ccc(O)cc1)C(=O)N[C@@H](CCCNC(=N)N)C(=O)N1CCC[C@H]1C(=O)N1CCC[C@H]1C(=O)N[C@@H](CC(N)=O)C(=O)N[C@@H](C)C(=O)O)[C@@H](C)O` [27.0280], the “Total DR alleles bound” value was found to be 8.
Take `CC[C@H](C)[C@H](NC(=O)CNC(=O)[C@H](C)NC(=O)[C@H](CCCCN)NC(=O)[C@H](Cc1c[nH]c2ccccc12)NC(=O)[C@H](CC(C)C)NC(=O)[C@@H](NC(=O)[C@H](Cc1c[nH]cn1)NC(=O)[C@H](CC(C)C)NC(=O)[C@H](Cc1ccc(O)cc1)NC(=O)[C@H](Cc1c[nH]cn1)NC(=O)[C@@H](N)CCCNC(=N)N)[C@@H](C)O)C(=O)N[C@@H](CC(C)C)C(=O)N[C@@H](Cc1ccc(O)cc1)C(=O)N[C@@H](CCCCN)C(=O)O` [Peptide 27.0281]: the “Total DR alleles bound” value came to 8.
`CC(C)C[C@H](NC(=O)CNC(=O)[C@@H](NC(=O)[C@H](Cc1ccccc1)NC(=O)[C@H](Cc1c[nH]c2ccccc12)NC(=O)[C@H](CCC(N)=O)NC(=O)[C@@H](NC(=O)[C@H](Cc1ccccc1)NC(=O)[C@@H]1CCCN1C(=O)[C@@H](NC(=O)[C@@H](N)CC(C)C)C(C)C)C(C)C)C(C)C)C(=O)N[C@@H](CO)C(=O)N1CCC[C@H]1C(=O)N[C@H](C(=O)N[C@H](C(=O)O)C(C)C)[C@@H](C)O` [Peptide 1186.15]: the “Total DR alleles bound” value was determined as 7.
`CC[C@H](C)[C@H](NC(=O)[C@H](CCCNC(=N)N)NC(=O)[C@@H](NC(=O)[C@H](CC(C)C)NC(=O)[C@H](CC(C)C)NC(=O)[C@H](Cc1ccccc1)NC(=O)[C@H](Cc1ccccc1)NC(=O)CNC(=O)[C@H](C)N)[C@@H](C)O)C(=O)N[C@@H](CC(C)C)C(=O)N[C@H](C(=O)N[C@H](C(=O)N1CCC[C@H]1C(=O)N[C@@H](CCC(N)=O)C(=O)N[C@@H](CO)C(=O)O)[C@@H](C)CC)[C@@H](C)O` [Peptide 1280.06]: the “Total DR alleles bound” value was 9.
On to `CC(C)C[C@H](NC(=O)[C@H](C)NC(=O)[C@H](CO)NC(=O)[C@@H]1CCCN1C(=O)[C@@H](NC(=O)[C@H](Cc1ccc(O)cc1)NC(=O)[C@@H](NC(=O)[C@H](Cc1ccccc1)NC(=O)[C@H](CO)NC(=O)[C@@H](NC(=O)CN)[C@@H](C)O)C(C)C)C(C)C)C(=O)N[C@@H](CC(N)=O)C(=O)N1CCC[C@H]1C(=O)N[C@@H](C)C(=O)N[C@@H](CC(=O)O)C(=O)O` [Peptide 1280.09], for which the “Total DR alleles bound” value is recorded as 9.
Same read-out and setting: the result for `CC[C@H](C)[C@H](NC(=O)[C@H](CCCCN)NC(=O)[C@H](CCCNC(=N)N)NC(=O)[C@H](Cc1ccccc1)NC(=O)CNC(=O)[C@H](CC(C)C)NC(=O)[C@@H](NC(=O)[C@@H](NC(=O)[C@@H]1CCCN1C(=O)[C@H](Cc1c[nH]cn1)NC(=O)[C@H](CO)NC(=O)[C@H](Cc1ccc(O)cc1)NC(=O)[C@H](CC(C)C)NC(=O)[C@H](Cc1c[nH]cn1)NC(=O)[C@@H](N)CC(C)C)[C@@H](C)CC)[C@@H](C)CC)C(=O)O` [Peptide 1280.15] reads 7.
On to `CC(C)C[C@H](NC(=O)[C@H](Cc1ccccc1)NC(=O)[C@H](C)NC(=O)[C@H](CCCCN)NC(=O)[C@H](Cc1ccc(O)cc1)NC(=O)[C@@H](NC(=O)[C@@H]1CCCN1C(=O)[C@H](CO)NC(=O)[C@H](Cc1ccccc1)NC(=O)[C@@H](NC(=O)[C@H](Cc1ccccc1)NC(=O)[C@H](C)NC(=O)[C@H](CCC(N)=O)NC(=O)[C@@H](N)CCCCN)[C@@H](C)O)[C@@H](C)O)C(=O)N[C@@H](CS)C(=O)O` [Peptide 1293.06], for which the “Total DR alleles bound” value is listed as 10.
